Target: SHP2 (Homo sapiens (Human), UniProt Q06124)
Experiment: SHP2 allosteric inhibition assay (DiFMUP prompt fluorescence)
Assay type: biochemical
Details: read-out: SHP2 IC50; Table 3; 0.25 nM SHP2 with 0.5 μM peptide IRS1_pY1172(dPEG8)pY1222, substrate DiFMUP 100 μM

Chains of the proteins cited; added tags and fusions are not shown.
UniProt Q06124, whole entry: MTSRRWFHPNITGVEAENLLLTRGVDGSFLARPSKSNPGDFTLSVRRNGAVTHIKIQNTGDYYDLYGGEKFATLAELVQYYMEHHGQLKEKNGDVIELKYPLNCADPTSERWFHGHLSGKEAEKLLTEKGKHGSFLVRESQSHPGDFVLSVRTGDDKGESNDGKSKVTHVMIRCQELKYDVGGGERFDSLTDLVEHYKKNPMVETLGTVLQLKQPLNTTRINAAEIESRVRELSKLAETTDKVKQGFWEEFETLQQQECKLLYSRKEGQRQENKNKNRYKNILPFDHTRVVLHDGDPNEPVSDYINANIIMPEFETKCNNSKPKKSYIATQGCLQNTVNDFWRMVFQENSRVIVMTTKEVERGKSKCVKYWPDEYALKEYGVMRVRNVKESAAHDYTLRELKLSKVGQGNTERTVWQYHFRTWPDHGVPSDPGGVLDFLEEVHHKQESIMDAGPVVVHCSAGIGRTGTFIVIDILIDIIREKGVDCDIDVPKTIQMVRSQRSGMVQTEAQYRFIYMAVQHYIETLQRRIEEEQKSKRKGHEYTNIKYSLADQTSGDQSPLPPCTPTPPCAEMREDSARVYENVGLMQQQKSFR

SMILES: C[C@@H]1OCC2(CCN(c3nc4[nH]nc(N5CCCc6nc(-c7cnn(C)c7)ccc65)c4nc3CO)CC2)[C@@H]1N
- IC50: < 1 µM

Source: patent US12138263B2, “Pyrazolo[3,4-b]pyrazine SHP2 phosphatase inhibitors and methods of use thereof” (Relay Therapeutics, Inc., priority 2018, dated 2024)
